The source of these data is ChEMBL document CHEMBL1132933, “Protease inhibitors: synthesis and QSAR study of novel classes of nonbasic thrombin inhibitors incorporating sulfonylguanidine and O-methylsulfonylisourea moieties at P1” (J Med Chem, 2000).

Structures are written as SMILES.

This experiment has as its target Prothrombin (Homo sapiens, UniProt P00734). The experiment in a line: Inhibitory activity against human thrombin (using Chromozym TH as the substrate).

In the case of `CN(C)S(=O)(=O)N=C(N)N`, the affinity corresponds to a Ki of 1.2 µM.
For `CC1CNc2c(cccc2S(=O)(=O)N[C@@H](CCCNC(=N)N)C(=O)N2CC[C@@H](C)C[C@@H]2C(=O)O)C1` (some centres not stated) [ARGATROBAN] the value was 0.019 µM.

The Ki is the dissociation constant of the complex between target and ligand, obtained from inhibition or displacement.
